Molecular target: T1, SHMT2 (Homo sapiens, UniProt P34897)
T1 construct: made in house; host or cells: E. coli Rosetta (DE3)pLysS
T1 sequence (P34897 30-504): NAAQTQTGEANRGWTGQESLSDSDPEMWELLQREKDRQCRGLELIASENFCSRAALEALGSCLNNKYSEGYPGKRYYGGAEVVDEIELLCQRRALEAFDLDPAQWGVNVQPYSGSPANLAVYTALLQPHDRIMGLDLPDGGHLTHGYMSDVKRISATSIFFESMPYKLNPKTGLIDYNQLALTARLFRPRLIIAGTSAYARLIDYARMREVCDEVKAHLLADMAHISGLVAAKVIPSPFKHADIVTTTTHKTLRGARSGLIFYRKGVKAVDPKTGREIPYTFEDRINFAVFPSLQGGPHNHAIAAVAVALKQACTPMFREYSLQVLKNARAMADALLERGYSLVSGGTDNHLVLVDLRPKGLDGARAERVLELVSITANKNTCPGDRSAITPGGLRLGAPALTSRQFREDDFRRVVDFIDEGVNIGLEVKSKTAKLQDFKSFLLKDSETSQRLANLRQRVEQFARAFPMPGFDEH
Assay: SHMT2 inhibition assay coupled with MTHFD2, Ki
Type: biochemical

## Nc1nc2ccn(CCCCCc3ccc(C(=O)N[C@@H](CCC(=O)O)C(=O)O)c(F)c3)c2c(=O)[nH]1 [Compound 11, (4-(5-(2-Amino-4-oxo-3,4-dihydro-5H-pyrrolo[3,2-d]pyrimidin-5-yl)pentyl)-2-fluorobenzoyl)-L-glutamic Acid]
2-fluoro-phenyl bridge versus phenyl bridge (9)
  fold increased SHMT2 inhibition potency over phenyl bridge 9: 2 fold
Ratio of Ki values relative to compound 1
  fold increased SHMT2 inhibition potency over 1: 28 fold
